The conditions of the data set: 101.33 kPa, Liquid, Pycnometric method.

± gives the expanded uncertainty stated by the source.

On to `OCCOCCOCCOCCO` [tetraethylene glycol], for which the mass density (in general, the mass of a sample divided by its volume) runs as follows: (303.15 K) 1116 ± 1 kg/m3; (313.15 K) 1108 ± 1 kg/m3; (323.15 K) 1100 ± 1 kg/m3; (333.15 K) 1093 ± 1 kg/m3; (343.15 K) 1086 ± 1 kg/m3.

The record behind these values is the NIST ThermoML archive (doi:10.1016/j.jct.2008.12.003).
